# Measurements: patent US6972282B1, “Process for producing a product containing antihypertensive tripeptides” (Valio Ltd., priority 1999, dated 2005)
# Protein sequences, listed by entry. Tags and fused reporters are not part of them. Residues count along the entry.
# UniProt P12821, 30-1306, species assumed: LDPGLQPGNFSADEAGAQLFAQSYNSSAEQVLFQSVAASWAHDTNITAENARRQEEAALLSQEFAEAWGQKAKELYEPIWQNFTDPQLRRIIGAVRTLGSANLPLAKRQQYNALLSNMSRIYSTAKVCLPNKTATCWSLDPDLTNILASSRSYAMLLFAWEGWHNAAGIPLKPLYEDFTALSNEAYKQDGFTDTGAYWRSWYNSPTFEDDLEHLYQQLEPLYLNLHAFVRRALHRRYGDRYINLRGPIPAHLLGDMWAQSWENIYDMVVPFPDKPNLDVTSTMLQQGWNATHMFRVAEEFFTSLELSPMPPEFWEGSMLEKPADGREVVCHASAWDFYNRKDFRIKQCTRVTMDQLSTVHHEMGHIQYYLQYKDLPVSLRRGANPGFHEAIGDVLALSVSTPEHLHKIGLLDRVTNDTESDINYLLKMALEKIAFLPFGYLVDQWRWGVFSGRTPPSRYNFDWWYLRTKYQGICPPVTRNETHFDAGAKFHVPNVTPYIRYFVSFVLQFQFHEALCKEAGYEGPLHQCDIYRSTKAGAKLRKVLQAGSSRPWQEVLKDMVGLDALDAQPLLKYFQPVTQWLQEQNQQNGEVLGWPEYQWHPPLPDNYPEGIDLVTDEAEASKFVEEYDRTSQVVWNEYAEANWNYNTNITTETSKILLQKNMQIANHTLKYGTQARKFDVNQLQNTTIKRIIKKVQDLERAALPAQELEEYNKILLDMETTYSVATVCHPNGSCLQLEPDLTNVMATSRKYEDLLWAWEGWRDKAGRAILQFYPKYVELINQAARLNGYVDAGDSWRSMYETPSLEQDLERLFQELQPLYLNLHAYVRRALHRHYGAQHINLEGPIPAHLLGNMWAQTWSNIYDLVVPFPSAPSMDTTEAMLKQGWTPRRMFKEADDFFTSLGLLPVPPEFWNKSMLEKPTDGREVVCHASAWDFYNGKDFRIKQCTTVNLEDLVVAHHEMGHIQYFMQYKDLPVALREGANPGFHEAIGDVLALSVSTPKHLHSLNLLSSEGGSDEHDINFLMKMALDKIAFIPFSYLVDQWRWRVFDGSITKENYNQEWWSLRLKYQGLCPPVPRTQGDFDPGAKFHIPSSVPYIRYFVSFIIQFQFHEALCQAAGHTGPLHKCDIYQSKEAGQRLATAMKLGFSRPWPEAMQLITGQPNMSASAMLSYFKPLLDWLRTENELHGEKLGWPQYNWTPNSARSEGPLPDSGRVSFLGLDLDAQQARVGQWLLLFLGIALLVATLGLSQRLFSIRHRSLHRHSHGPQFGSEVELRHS
# pKi: −log10 of the molar value.
# Target: angiotensin converting enzyme (ACE) (Homo sapiens, UniProt P12821)
# Experiment: ACE inhibitory activity, inhibitor constant (continuous spectrophotometric assay, Holmquist et al.)
# Type: biochemical
# Details: the smaller the number, the more effective the ACE inhibitor
row,SMILES,pKi
1,"CC(C)[C@H](N)C(=O)N1CCC[C@H]1C(=O)N1CCC[C@H]1C(=O)O [VPP, Val-Pro-Pro]",4.74
2,"CC[C@H](C)[C@H](N)C(=O)N1CCC[C@H]1C(=O)N1CCC[C@H]1C(=O)O [IPP, IIe-Pro-Pro]",5.36
